This is an account of results in US20170319643A1.

The assay concerns the target neutrophil elastase. Put plainly: cell-based or functional assay.

With “alpha-1-antitrypsin bound to reconstituted HDL (from UniProt P01009 25-418; P02647 25-267)”, the elastase inhibitor capacity (fluorometric elastase activity assay), compared with free A1AT is 5 fold.
